# Literature values in US12522615B2, “Macrocyclic compounds and derivatives as EGFR inhibitors” (Boehringer Ingelheim International GmbH, priority 2019, dated 2026).
# Tested on: EGFR M+ NSCLC patients
# Details: EGFR M+ NSCLC patients treated in 1st line; cited from earlier work
smiles,measurement,value
COc1cc2ncnc(Nc3ccc(F)c(Cl)c3)c2cc1OCCCN1CCOCC1 [gefitinib],objective response rate,60-85%
